Sequences of proteins named here, by UniProt entry; tags and fusion partners are left off.
UniProt P49840, whole entry: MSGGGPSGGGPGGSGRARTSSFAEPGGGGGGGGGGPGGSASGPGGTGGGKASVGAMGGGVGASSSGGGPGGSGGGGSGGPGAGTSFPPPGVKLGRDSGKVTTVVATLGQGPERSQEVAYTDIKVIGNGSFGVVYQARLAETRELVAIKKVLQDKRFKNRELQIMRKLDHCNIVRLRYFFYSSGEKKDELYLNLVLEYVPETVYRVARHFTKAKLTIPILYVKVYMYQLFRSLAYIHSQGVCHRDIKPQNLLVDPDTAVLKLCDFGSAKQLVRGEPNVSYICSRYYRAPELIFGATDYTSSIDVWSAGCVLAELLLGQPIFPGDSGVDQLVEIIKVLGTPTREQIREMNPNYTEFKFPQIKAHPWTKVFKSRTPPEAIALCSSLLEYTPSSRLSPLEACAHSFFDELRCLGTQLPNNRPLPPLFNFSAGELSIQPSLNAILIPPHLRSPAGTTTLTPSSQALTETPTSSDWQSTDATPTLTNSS

This is a selection; strong and weak results do not stand in their true shares. Active and inactive are the calls of the source.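 How the source made its calls: active means more than half of replicates show inhibition above 20%; inconclusive means some but at most half of replicates above 20% inhibition; inactive means no replicate shows inhibition above 20%.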
The compounds below were run against Glycogen synthase kinase-3 alpha (Homo sapiens) (UniProt P49840) (assay: blockers of GSK3A enzyme activity – biochemical, luminescence, cell-free homogeneous, HTS, primary screen (AID 2650;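 further: GST-tagged GSK-3 alpha with peptide substrate and 25 µM ATP; 0% = DMSO neutral wells and 100% = GW8510 positive control wells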)). Conditions: GSK-3 alpha kinase, ADP-Glo luminescence, 60 min; at 10 µM; stronger effect = higher value.
With `COc1ccc(NC2CCN(CCc3ccccc3)CC2)c(OC)c1` the inhibition was inactive: -0.246%.
For `CCOC(=O)N1CCC(Nc2ccc(F)cc2)CC1`, the inhibition was inactive: -1.13%.
For `O=C(NCC1(N2CCCCC2)CCCCC1)c1ccc(F)cc1`, the inhibition was inactive: 0.124%.
With `CCOc1ccc(C)cc1CN(CCCl)CCCl` the inhibition was inactive: 4.88%.
In the case of `Cc1ccc(OCC(C)C)c(CN(CCCl)CCCl)c1`, the inhibition is reported as inactive: 1.45%.
In the case of `CCOC(=O)N1CCC(Nc2cccc(C)c2)CC1`, the inhibition is reported as inactive: 0.789%.
For `COc1cc(C(=O)NCC2(N(C)C)CCCCC2)ccc1OC(F)F`, the inhibition was inactive: -2.29%.
With `CSc1ccccc1C(=O)NCC1(N2CCCCC2)CCCCC1` the inhibition was inactive: -0.599%.
In the case of `COc1ccc(C(=O)NCC2(N3CCCCC3)CCCCC2)c(OC)c1OC`, the inhibition is reported as inactive: -0.438%.
In the case of `CC(C)(C)OC(=O)N1CCC(N(C(=O)c2ccccc2)c2ccc(F)cc2)CC1`, the inhibition is reported as inactive: 0.246%.
In the case of `COc1ccc(C(=O)NCC2(N3CCCCC3)CCCCC2)cc1`, the inhibition is reported as inactive: -1.48%.
`O=C(NCC1(N2CCCCC2)CCCCC1)c1cccs1` was tested, and the inhibition was inactive: -2.34%.
With `O=C(NCC1(N2CCCCC2)CCCCC1)c1ccc(=O)[nH]c1` the inhibition was inactive: -0.83%.
With `COc1ccc(Cl)cc1C(=O)NCC1(N2CCOCC2)CCCCC1` the inhibition was inactive: 3.77%.
`N#CC1(Nc2ccccc2)CCN(Cc2ccccc2)CC1` was tested, and the inhibition was inactive: -1.23%.
For `O=C(NCC1(N2CCCCC2)CCCCC1)c1ccc(Cl)s1`, the inhibition was inactive: 1.89%.
For `O=C(OC1CN2CCC1CC2)C1c2ccccc2Oc2ccccc21` (stereo not given), the inhibition was inactive: -3.41%.
`Cc1cc(C)cc(N(C(=O)c2ccccc2)C2CCN(C(=O)OC(C)(C)C)CC2)c1` was tested, and the inhibition was inactive: -0.514%.
In the case of `O=C(NCC1(N2CCCCC2)CCCCC1)c1ccc(Cl)nc1`, the inhibition is reported as inactive: 12.5%.
With `O=C(NCC1(N2CCOCC2)CCCCC1)c1cc2ccccc2o1` the inhibition was inactive: -1.37%.
`O=C(NCC1(N2CCOCC2)CCCCC1)c1cc(F)c(F)cc1Cl` was tested, and the inhibition was inactive: -5.71%.
In the case of `COc1cc(OC)c(C(=O)NCC2(N(C)C)CCCCC2)cc1OC`, the inhibition is reported as inactive: -0.39%.
`CC(C)c1ccc(NC2CCN(C(=O)OC(C)(C)C)CC2)cc1` was tested, and the inhibition was inactive: -3.63%.
For `CN(C)c1cccc(C(=O)NCC2(N3CCCCC3)CCCCC2)c1`, the inhibition was inactive: -0.609%.
With `COc1ccc(CN(CCCl)CCCl)cc1Cl` the inhibition was inactive: 3.51%.
For `CCCOc1ccc(C(=O)NCC2(N(C)C)CCCCC2)cc1OC`, the inhibition was inactive: -2.79%.
With `CN1CCC(Nc2cccc(F)c2)CC1` the inhibition was inactive: -5.49%.
In the case of `O=C(NCC1(N2CCCCC2)CCCCC1)c1cncc(Br)c1`, the inhibition is reported as inactive: -0.986%.
For `N#CC1(Nc2ccccc2)CCN(CCc2ccccc2)CC1`, the inhibition was inactive: 0.613%.
For `CCN1CCC(Nc2ccc(Cl)cc2)CC1`, the inhibition was inactive: 1.33%.
In the case of `O=C(NCC1(N2CCCCC2)CCCCC1)c1cccc([N+](=O)[O-])c1`, the inhibition is reported as inactive: -2.41%.
For `O=C(NCC1(N2CCCCC2)CCCCC1)c1ccc(OC(F)F)cc1`, the inhibition was inactive: -1.47%.
In the case of `COc1cc(C(=O)NCC2(N3CCCCC3)CCCCC2)ccc1OC(F)F`, the inhibition is reported as inactive: 2.62%.
With `O=C(NCC1(N2CCOCC2)CCCCC1)c1cc(=O)[nH]c2ccccc12` the inhibition was inactive: 0.0504%.
For `CN1CCN(CCOC(=O)C(O)(c2ccccc2)c2ccccc2)CC1`, the inhibition was inactive: -2.49%.
`COc1ccc(NC2CCN(C(=O)OC(C)(C)C)CC2)cc1` was tested, and the inhibition was inactive: -2.1%.
For `O=C(NCC1(N2CCCCC2)CCCCC1)c1cccc(C(F)(F)F)c1`, the inhibition was inactive: 2.61%.
For `N#Cc1ccc(C(=O)NCC2(N3CCCCC3)CCCCC2)cc1`, the inhibition was inactive: -0.621%.
`CC(C)(C)OC(=O)N1CCC(N(C(=O)c2ccccc2)c2ccc(Cl)cc2)CC1` was tested, and the inhibition was inactive: -0.447%.
With `CN(C)C1(CNC(=O)c2cccc(C#N)c2)CCCCC1` the inhibition was inactive: 4.37%.
`CCCN1CCC(Nc2cc(OC)cc(OC)c2)CC1` was tested, and the inhibition was inactive: -2.62%.
`c1ccc(CN2CCC(Nc3ccccc3)CC2)cc1` was tested, and the inhibition was inactive: -0.254%.
`COc1ccc(C(=O)NCC2(N3CCOCC3)CCCCC2)cc1OC` was tested, and the inhibition was inactive: -1.61%.
With `COc1cc(C(=O)NCC2(N3CCOCC3)CCCCC2)cc(OC)c1C` the inhibition was inactive: -0.48%.
For `O=C(NCC1(N2CCOCC2)CCCCC1)c1cc(Br)ccc1Cl`, the inhibition was inactive: 13.9%.
For `CCc1cc(C(=O)NCC2(N3CCCCC3)CCCCC2)sc1C`, the inhibition was inactive: -0.472%.
`O=C(OC1CN2CCC1CC2)C1c2ccccc2C=Cc2ccccc21` (stereo not given) was tested, and the inhibition was inactive: -2.12%.
For `CCOC(=O)N1CCC(Nc2ccc(C)cc2)CC1`, the inhibition was inactive: -1.23%.
In the case of `N/C(=N\O)c1c(N)no[n+]1[O-]`, the inhibition is reported as inactive: -0.34%.
In the case of `O=C(O)C1(Nc2ccccc2)CCN(Cc2ccccc2)CC1`, the inhibition is reported as inactive: 2.15%.
For `CC(C)(C)OC(=O)N1CCC(Nc2ccccc2)CC1`, the inhibition was inactive: -2.6%.
`CCCOc1ccc(C(=O)NCC2(N(C)C)CCCCC2)cc1` was tested, and the inhibition was inactive: -1.27%.
`CN1CCC(Nc2ccc(F)c(Cl)c2)CC1` was tested, and the inhibition was inactive: -3.85%.
In the case of `CCOc1ncccc1C(=O)NCC1(N2CCOCC2)CCCCC1`, the inhibition is reported as inactive: 0.26%.
For `CN1CCC(Nc2ccc(Cl)cc2)CC1`, the inhibition was inactive: 0.819%.
In the case of `CCCOc1ccc(C)cc1CN(CCCl)CCCl`, the inhibition is reported as inactive: 2.56%.
For `COc1cc(OC)cc(C(=O)NCC2(N3CCOCC3)CCCCC2)c1`, the inhibition was inactive: -1.4%.
For `COc1cccc(C(=O)N(c2cc(C)cc(C)c2)C2CCN(C(=O)OC(C)(C)C)CC2)c1`, the inhibition was inactive: 0.565%.
With `CCC(CO)(C(=O)OC1CN2CCC1CC2)c1ccccc1` (stereo not given) the inhibition was inactive: -0.882%.
With `Fc1ccccc1NC1CCN(Cc2ccccc2)CC1` the inhibition was inactive: 0.884%.
In the case of `Cc1ccc(C(=O)NCC2(N3CCCCC3)CCCCC2)o1`, the inhibition is reported as inactive: 0.88%.
In the case of `COc1cc(OC)cc(C(=O)NCC2(N3CCCCC3)CCCCC2)c1`, the inhibition is reported as inactive: 2.43%.
For `CN(C)c1ccc(C(=O)NCC2(N3CCCCC3)CCCCC2)cc1`, the inhibition was inactive: -3.94%.
`O=C(NCC1(N2CCCCC2)CCCCC1)c1ccco1` was tested, and the inhibition was inactive: -1.28%.
`CCN1CCC(Nc2cccc(F)c2)CC1` was tested, and the inhibition was inactive: 0.664%.
